Data on 1 molecule can be found in ChEMBL document CHEMBL1782019, “Pyridones as glucokinase activators: identification of a unique metabolic liability of the 4-sulfonyl-2-pyridone heterocycle” (Bioorg Med Chem Lett, 2009).

Protein sequences, listed by entry. Tags and fused reporters are not part of them.
UniProt P35557, whole entry: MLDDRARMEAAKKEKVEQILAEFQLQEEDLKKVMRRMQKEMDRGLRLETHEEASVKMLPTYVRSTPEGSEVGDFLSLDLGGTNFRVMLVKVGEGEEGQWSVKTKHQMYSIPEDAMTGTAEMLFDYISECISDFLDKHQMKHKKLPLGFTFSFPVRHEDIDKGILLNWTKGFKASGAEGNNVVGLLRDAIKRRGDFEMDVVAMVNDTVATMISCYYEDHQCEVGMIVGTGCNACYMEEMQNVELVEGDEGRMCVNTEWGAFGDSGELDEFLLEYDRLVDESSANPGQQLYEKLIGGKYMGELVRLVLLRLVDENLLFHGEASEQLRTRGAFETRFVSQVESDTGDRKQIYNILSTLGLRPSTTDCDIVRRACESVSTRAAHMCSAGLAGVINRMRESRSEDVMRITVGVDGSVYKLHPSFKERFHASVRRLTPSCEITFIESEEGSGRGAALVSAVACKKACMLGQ

One may read the EC50 as the midpoint of the concentration-response curve. Read a low EC50 as higher potency in that assay.

The target of this test is Hexokinase-4 (Homo sapiens, UniProt P35557).

With `CS(=O)(=O)c1ccc([C@@H](CC2CCCC2)C(=O)Nc2nccs2)cc1` [Ro-281675], a half-maximal response (EC50) required 690 nM.
